The text below walks through data of ChEMBL document CHEMBL1140164, “Isosorbide-2-carbamate esters: potent and selective butyrylcholinesterase inhibitors” (J Med Chem, 2008).

Chains of the proteins cited; added tags and fusions are not shown. Lines headed by an entry give the natural chain unless they say otherwise; changes in a name come on top.
UniProt O42275: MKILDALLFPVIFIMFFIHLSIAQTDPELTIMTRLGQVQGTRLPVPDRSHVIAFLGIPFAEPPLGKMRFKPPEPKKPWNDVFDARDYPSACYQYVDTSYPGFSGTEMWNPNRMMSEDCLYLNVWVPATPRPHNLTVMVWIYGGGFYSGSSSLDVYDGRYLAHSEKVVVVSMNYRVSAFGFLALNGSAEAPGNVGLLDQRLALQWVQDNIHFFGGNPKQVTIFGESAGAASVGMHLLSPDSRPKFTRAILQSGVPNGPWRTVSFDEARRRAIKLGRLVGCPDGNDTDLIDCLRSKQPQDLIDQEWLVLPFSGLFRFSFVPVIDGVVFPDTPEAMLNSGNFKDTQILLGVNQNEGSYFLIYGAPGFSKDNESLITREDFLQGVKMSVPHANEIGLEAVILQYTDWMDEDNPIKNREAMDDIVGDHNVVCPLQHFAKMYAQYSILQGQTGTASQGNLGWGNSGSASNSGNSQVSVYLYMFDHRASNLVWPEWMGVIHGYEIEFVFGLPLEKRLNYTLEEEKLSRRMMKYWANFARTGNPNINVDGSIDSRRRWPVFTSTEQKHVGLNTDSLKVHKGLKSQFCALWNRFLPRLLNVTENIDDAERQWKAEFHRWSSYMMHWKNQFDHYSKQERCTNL

The assay addresses Acetylcholinesterase (Electrophorus electricus, UniProt O42275). Nature of the assay: Inhibition of electric eel AchE by Ellman's method. An outline of the steps: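 Ellman assay with electric eel AChE and ATCI as substrate, phosphate buffer pH 8.0, DTNB (0.5 mM solution). Enzyme and inhibitor incubated 30 min before substrate addition; absorbance read at 405 nm over 5 min. Initial screen at 100 µM inhibitor; IC50 fitted only where inhibition was significant, reported with 95% confidence interval. Triplicate.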
(In general: In Ellman's method for cholinesterases, released thiocholine reacts with DTNB.)

Broadly, the IC50 is the point on the concentration scale where inhibition reaches its midpoint. A high value points to a need for much substance.

Each structure is given as a SMILES string.

With `CNC(=O)Oc1ccc2c(c1)[C@]1(C)CCN(C)[C@@H]1N2C` [PHYSOSTIGMINE], half-maximal inhibition (IC50) was put at 103 nM.
